Experimental data published in patent publication US7374891B2, “Methods to identify compounds that modulate rage” (TransTech Pharma, Inc., priority 2000, dated 2008).

System: RAGE (S-100b/RAGE interaction in C6 glioma cells)
Assay: pNF-κB-Luc luciferase reporter assay in C6 glioma cells expressing high levels of RAGE
Settings: read-out: IC50, inhibition of S-100b/RAGE interaction in C6 glioma cells; NF-κB luciferase reporter, FIG. 14; tested form: 2HCl

## CCCCOc1cc(C(=O)OCCN(CC)CC)ccc1NC(=O)[C@H](N)Cc1ccc2ccccc2c1
  IC50: 3.3 µM
